Literature values, collected in patent US5310762A, “Medicaments” (Burroughs Wellcome Co., priority 1988, dated 1994).

Conditions: AIDS patients; much higher than usual; Wofsy 1986; cited from earlier work

trimethoprim-sulphamethoxazole
incidence of adverse reactions: around 50%
